Hits are enriched below; roughly 4.2% of the tested compounds scored in any of these assays.
ALR H2O2 inh: human ALR oxidase inhibition via reduced H2O2; P55789; purified ALR, DTT oxidation, H2O2 HRP-luminol luminescence; inhibition, % (concentration not given with the values); 3.8% of 290,000 active; AID 485317;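 active = mean and each replicate at 75% or more; inconclusive = only one of the two met; inactive = neither met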;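 note: stock transfer was 7.5 nL into about 7.5 µL; 0% = neutral wells and 100% = wells with inactivated enzyme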
HDAC3 inhib: human HDAC3 inhibition. inhibition, % at 8.3 µM. actives 0.15% (n = 320,000). O15379. AID 2718. recombinant HDAC3, fluorogenic peptide/trypsin coupled, fluorescence; in the data active = inhibition above about 26%, passing the limit was not always enough
Yeast UUG start: modulators of start codon recognition fidelity in yeast. S. cerevisiae UUG-firefly luciferase reporter, luminescence/redox ratio. activity score, % at 18.7 µM. 0.13% of 350,000 active. AID 602363;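 active = replicate mean at a twofold rise or more, about +100% in these data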;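 also: firefly luciferase made from a UUG start codon reports start codon fidelity; reporter light over untreated wells divided by growth signal over untreated wells; some hits fall short of that in this replicate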
NALP1 inh: blocks the NALP1 inflammasome reconstituted in yeast; S. cerevisiae NALP1/ASC/caspase-1 growth, X-gal OD620, 72 h; inhibition, % at 10 µM; actives 0.61% (n = 280,000); AID 2071; in the data active = inhibition mostly above about 24%, no sharp cut-off; inactive = mostly below about 32%
MC4R ag barr: agonists of human melanocortin 4 receptor (MC4R) beta-arrestin | actives 0.98% (n = 360,000) | U2OS MC4R beta-arrestin complementation, luminescence; percent of melanotan II response, DMSO zero | activation, % at 8.9 µM | P32245 | AID 540308;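 active = activation above a per-plate cutoff, the mean activation of sample wells on that plate plus 3 SD, cut at about 8% in these data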
MC4R antag cAMP: human MC4R antagonism in cAMP assay. AID 540295. MC4R-expressing cells, MTII-stimulated cAMP, LANCE TR-FRET. inhibition, % at 6.5 µM. actives 0.48% (n = 360,000). P32245;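 active = inhibition above its plate's cutoff, the mean of tested wells on that plate plus 3 SD, cut at about 29% in these data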;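 note: 0% = Melanotan II alone and 100% = Melanotan II plus saturating MCL0020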
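Material – human MC4R-expressing U2OS cells · Repeats – no replicates · Detection – TR-FRET with Eu-cAMP and labeled anti-cAMP, 671 nm · Times – compound 30 min, challenge 1 h, detection 1 h · Compound – single nominal compound dose of 6.5 µM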
Starred values were filed as active, the others as inactive; x = no result given.

1. C[C@@H]1CN([C@@H](C)CO)C(=O)c2cccc(NS(=O)(=O)c3cn(C)cn3)c2O[C@H]1CN(C)Cc1ccncc1
2. CC1=NNC(=O)/C1=C\c1cn(-c2ccccc2)nc1-c1ccc(F)cc1
3. O=Cc1cn(-c2ccccc2)nc1-c1ccc(F)cc1
4. COc1cccc(S(=O)(=O)N[C@H]2CC[C@@H](CC(=O)NCc3ccc(Cl)cc3)O[C@H]2CO)c1
5. O=C(Nn1cnnc1)c1cc(-c2ccccn2)nc2ccccc12
6. O=C(NNS(=O)(=O)c1ccc2ccccc2c1)c1cc(-c2ccccn2)nc2ccccc12
screen / no.	1	2	3	4	5	6
ALR H2O2 inh	x	x	-6	x	-20	96*
HDAC3 inhib	x	x	-2	x	-4	5
Yeast UUG start	-14	-13	-4	13	-14	x
NALP1 inh	x	8	7	x	1	24
MC4R ag barr	x	3	3	x	1	0
MC4R antag cAMP	x	31*	22	x	6	10

7. CC(=O)N1CCC(=NNc2nc3ccccc3[nH]2)CC1
8. C[C@H](CO)N1C[C@H](C)[C@@H](CN(C)Cc2ccc(Cl)c(Cl)c2)Oc2ccc(NC(=O)Nc3ccc4c(c3)OCO4)cc2C1=O
9. COC(=O)C1=C(C)N(Cc2ccccc2)C(=NCc2cccc(Cl)c2)N[C@H]1c1cccc(F)c1
10. COC(=O)C1=C(C)N(Cc2ccccc2)C(=NCc2ccccc2)N[C@H]1c1cccc(C(F)(F)F)c1
11. COC(=O)C1=C(C)N(Cc2ccccc2)C(=NCc2ccc(OC)cc2)N[C@H]1c1cccc(F)c1
12. O=C(C[C@@H]1CC[C@H](NC(=O)CN2CCOCC2)[C@H](CO)O1)NC1CCCCC1
screen / no.	7	8	9	10	11	12
ALR H2O2 inh	100*	x	-9	-12	-25	x
HDAC3 inhib	3	x	5	3	13	x
Yeast UUG start	-32	-1	2	7	-16	-2
NALP1 inh	-6	x	x	x	16	x
MC4R ag barr	4	x	13*	16*	4	x
MC4R antag cAMP	0	x	9	3	3	x

13. CC(C)CN1C(=O)NC(NS(=O)(=O)c2ccc(N)cc2)(C(F)(F)F)C1=O (stereo unspecified)
14. C[C@H](CO)N1C[C@H](C)[C@@H](CN(C)C(=O)CCCN(C)C)OCCCC[C@H](C)Oc2ccc(NC(=O)Nc3ccc(C(F)(F)F)cc3)cc2C1=O
15. N#CCCn1c(SCC(=O)Nc2ccc(N3CCOCC3)cc2)nc2ccccc21
16. Cn1cc(SCC(=O)N2CCN(c3ccccc3)CC2)c2ccccc21
17. O=C(CSc1nc2ccccc2[nH]1)Nc1ccc(N2CCOCC2)cc1
18. O=C(CSc1nc2ccccc2[nH]1)Nc1cccc(S(=O)(=O)N2CCOCC2)c1
screen / no.	13	14	15	16	17	18
ALR H2O2 inh	99*	x	99*	98*	99*	x
HDAC3 inhib	-1	x	-1	-1	5	-3
Yeast UUG start	x	18	x	-30	-19	-13
NALP1 inh	26	x	21	5	-4	-5
MC4R ag barr	-1	x	-3	0	-1	2
MC4R antag cAMP	-2	x	-1	12	4	6

19. O=C1CCC(=O)N1c1ccc(CSc2nc3ccccc3[nH]2)cc1
20. COc1ccccc1-c1cn(CC[C@H]2CC[C@@H](NC(=O)Cc3ccccn3)[C@H](CO)O2)nn1
21. O=C(CSc1nc2ccccc2[nH]1)N1CCN(c2ccccc2)CC1
22. O=C(CCCSc1nc2ccccc2[nH]1)N1CCN(c2ccccc2)CC1
23. O=C(O)c1cc(-c2ccc(/C=C3\NC(=O)N(c4ccccc4)C3=O)o2)ccc1Cl
24. O=C(O)c1cc(-c2ccc(/C=c3\sc4nc5ccc(Br)cc5n4c3=O)o2)ccc1Cl
screen / no.	19	20	21	22	23	24
ALR H2O2 inh	99*	x	99*	22	58	93*
HDAC3 inhib	1	x	4	-4	-1	5
Yeast UUG start	5	4	-24	-22	-7	x
NALP1 inh	-3	x	16	-1	30*	16
MC4R ag barr	-1	x	-2	-1	0	x
MC4R antag cAMP	7	x	9	4	2	x

25. C[C@H](CO)N1C[C@H](C)[C@H](CN(C)C(=O)Cc2ccccn2)Oc2ncc(C#CC3CCCCC3)cc2C1=O
26. C=CCn1c(-c2cccs2)nc2ccccc21
27. C=CCn1c(N)c(-c2nc3ccccc3n2C)sc1=S
28. C=CCn1c(-c2cccs2)nc2nc3ccccc3nc21
29. C[C@@H]1CN([C@H](C)CO)C(=O)c2cc(NC(=O)Cn3cnnn3)ccc2O[C@H]1CN(C)C(=O)Nc1ccc2c(c1)OCO2
30. Cc1ccc(S(=O)(=O)Nc2cccc3c2O[C@@H](CN(C)S(=O)(=O)c2ccc(F)cc2)[C@H](C)CN([C@@H](C)CO)C3=O)cc1
screen / no.	25	26	27	28	29	30
ALR H2O2 inh	x	14	90*	-1	x	x
HDAC3 inhib	x	-42	0	-219	x	x
Yeast UUG start	-6	-9	x	-17	-12	-10
NALP1 inh	x	25*	4	6	x	x
MC4R ag barr	x	-2	1	-3	x	x
MC4R antag cAMP	x	-4	-4	0	x	x

Part of the list above in order of SMILES length, rising:
28. C=CCn1c(-c2cccs2)nc2nc3ccccc3nc21
29. C[C@@H]1CN([C@H](C)CO)C(=O)c2cc(NC(=O)Cn3cnnn3)ccc2O[C@H]1CN(C)C(=O)Nc1ccc2c(c1)OCO2
30. Cc1ccc(S(=O)(=O)Nc2cccc3c2O[C@@H](CN(C)S(=O)(=O)c2ccc(F)cc2)[C@H](C)CN([C@@H](C)CO)C3=O)cc1
screen / no.	28	29	30
ALR H2O2 inh	-1	x	x
HDAC3 inhib	-219	x	x
Yeast UUG start	-17	-12	-10
NALP1 inh	6	x	x
MC4R ag barr	-3	x	x
MC4R antag cAMP	0	x	x

(further entries)
31. COc1ccc2c(c1)c(C(=O)CNc1nc(C)cs1)c(C)n2C
32. CCOCc1cnc(C)nc1NCC(=O)c1c(C)n(C)c2ccc(OC)cc12
33. C[C@H]1CN([C@@H](C)CO)S(=O)(=O)c2ccc(C#CC3(O)CCCC3)cc2O[C@H]1CN(C)C
34. Cc1ccc(S(=O)(=O)/N=C2/NC(=O)/C(=C\c3ccco3)S2)cc1
35. CC(=O)Nc1ccc(S(=O)(=O)/N=C2/NC(=O)/C(=C\c3ccco3)S2)cc1
36. Cc1ccc(S(=O)(=O)/N=C2/NC(=O)/C(=C\c3ccccc3)S2)cc1
screen / no.	31	32	33	34	35	36
ALR H2O2 inh	98*	x	x	11	99*	99*
HDAC3 inhib	-4	x	x	4	8	-2
Yeast UUG start	-19	x	-10	-12	x	-13
NALP1 inh	18	-1	x	10	16	x
MC4R ag barr	0	-2	x	-1	1	1
MC4R antag cAMP	6	1	x	2	-11	14

37. Cc1ccc(S(=O)(=O)N(C)C[C@@H]2OCCCC[C@@H](C)Oc3ccc(NC(=O)NC4CCCCC4)cc3C(=O)N([C@H](C)CO)C[C@H]2C)cc1
38. COc1ccc(OC)c(NC(=O)c2c(NC(=O)CNCc3ccco3)sc3c2CCC3)c1
39. COCC1=C([C@H](O)c2ccccc2)[C@H](CO)[C@@H]2C(=O)N(C)C(=O)[C@@H]2C1
40. COc1ccc(NCN2C(=O)CCC2=O)cc1
41. O=C1CCC(=O)N1CNc1ccc(Oc2ccccc2)cc1
42. C[C@H](CO)N1C[C@H](C)[C@H](CN(C)Cc2ccc(C(=O)Nc3ccccc3N)cc2)Oc2c(NS(=O)(=O)c3cccs3)cccc2C1=O
screen / no.	37	38	39	40	41	42
ALR H2O2 inh	x	-1	x	17	98*	x
HDAC3 inhib	x	-10	x	-3	-2	x
Yeast UUG start	-12	-11	3	-17	-6	7
NALP1 inh	x	18	x	-12	8	x
MC4R ag barr	x	9.2*	x	0	0	x
MC4R antag cAMP	x	16	x	4	-1	x

43. O=[N+]([O-])c1cc(S(=O)(=O)N2CCCCCC2)ccc1F
44. c1ccc(CC2CCN(c3nnnn3-c3ccccc3)CC2)cc1
45. N/C(=N/O)c1ccccc1N1CCC(Cc2ccccc2)CC1
46. CC(=O)Oc1cccc(N2C(=O)c3ccc(C(=O)Nc4c[nH]c(=O)[nH]c4=O)cc3C2=O)c1
47. COc1ccc(Oc2ccc(/C=C/C(=O)c3ccc(O)cc3)cc2[N+](=O)[O-])cc1
screen / no.	43	44	45	46	47
ALR H2O2 inh	97*	-6	92*	-9	96*
HDAC3 inhib	2	-7	-1	-4	-1
Yeast UUG start	x	-14	x	x	x
NALP1 inh	79*	46	11	28	33
MC4R ag barr	-2	-1	-1	0	-2
MC4R antag cAMP	-11	2	3	42*	18
